This passage reports IC50 results from ChEMBL document CHEMBL1150976, “The selectivity of protein kinase inhibitors: a further update” (Biochem J, 2007).

Experiment [1] concerns the target Proto-oncogene tyrosine-protein kinase Src (Gallus gallus, UniProt P00523). In words: Inhibition of Src in the presence of 50uM ATP.
In experiment [2] the target is T1, Serine/threonine-protein kinase D1 (Homo sapiens, UniProt Q15139).
T1 sequence (Q15139 whole entry): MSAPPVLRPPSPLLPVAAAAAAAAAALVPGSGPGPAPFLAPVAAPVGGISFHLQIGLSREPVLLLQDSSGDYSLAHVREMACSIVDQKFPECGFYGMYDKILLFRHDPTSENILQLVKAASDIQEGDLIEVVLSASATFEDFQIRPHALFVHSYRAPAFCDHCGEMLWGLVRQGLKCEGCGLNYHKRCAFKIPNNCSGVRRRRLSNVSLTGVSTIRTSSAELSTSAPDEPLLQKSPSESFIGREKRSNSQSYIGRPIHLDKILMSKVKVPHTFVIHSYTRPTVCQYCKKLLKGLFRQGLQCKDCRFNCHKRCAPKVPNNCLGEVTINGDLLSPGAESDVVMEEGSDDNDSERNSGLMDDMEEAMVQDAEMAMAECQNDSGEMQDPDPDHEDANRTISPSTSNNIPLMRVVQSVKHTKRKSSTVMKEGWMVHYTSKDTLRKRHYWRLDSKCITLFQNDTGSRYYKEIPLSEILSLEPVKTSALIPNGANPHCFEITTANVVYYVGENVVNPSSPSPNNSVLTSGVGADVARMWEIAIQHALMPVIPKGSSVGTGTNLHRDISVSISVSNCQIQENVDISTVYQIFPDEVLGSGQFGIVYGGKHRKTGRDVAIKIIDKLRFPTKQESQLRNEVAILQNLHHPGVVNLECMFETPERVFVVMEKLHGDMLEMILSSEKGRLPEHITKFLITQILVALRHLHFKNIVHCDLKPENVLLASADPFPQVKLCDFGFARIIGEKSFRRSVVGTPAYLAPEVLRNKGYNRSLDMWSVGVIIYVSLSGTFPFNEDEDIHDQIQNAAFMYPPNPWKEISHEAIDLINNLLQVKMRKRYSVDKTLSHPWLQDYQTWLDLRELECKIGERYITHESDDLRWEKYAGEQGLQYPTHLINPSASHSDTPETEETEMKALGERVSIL
In words: Inhibition of PKD1 in the presence of 50uM ATP.

For `CC(C)(C)n1nc(Cc2cccc3ccccc23)c2c(N)ncnc21`, the IC50 in experiment [1] was 620 nM (antagonist).

For `CC(C)(C)n1nc(-c2cccc3ccccc23)c2c(N)ncnc21`, the half-maximal inhibitory concentration (IC50) in experiment [2] was 900 nM (antagonist).
